{
  "source": "ChEMBL document CHEMBL4616713",
  "about": "“Discovery of Novel Nonpeptidic PAR2 Ligands” (ACS Med Chem Lett, 2020)",
  "target": "T1, Proteinase-activated receptor 2 (Homo sapiens, UniProt P55085)",
  "T1 sequence (P55085 whole entry)": "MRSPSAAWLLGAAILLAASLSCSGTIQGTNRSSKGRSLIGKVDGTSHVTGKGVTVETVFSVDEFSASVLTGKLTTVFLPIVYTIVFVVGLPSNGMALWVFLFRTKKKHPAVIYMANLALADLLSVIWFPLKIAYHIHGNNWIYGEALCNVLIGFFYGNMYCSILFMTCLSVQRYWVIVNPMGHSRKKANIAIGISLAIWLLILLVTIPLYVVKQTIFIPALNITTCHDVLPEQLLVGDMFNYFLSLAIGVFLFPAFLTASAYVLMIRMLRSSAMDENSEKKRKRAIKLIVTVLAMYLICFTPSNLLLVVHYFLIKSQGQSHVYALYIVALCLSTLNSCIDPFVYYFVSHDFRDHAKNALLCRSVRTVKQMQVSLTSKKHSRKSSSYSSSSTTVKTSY",
  "experiment": "Agonist activity at PK1-tagged PAR2 (unknown origin) expressed in HEK293 cells assessed as induction of beta-arrestin recruitment incubated for 90 mins by Pathhunter chemiluminescent assay relative to 2f-LIGRLO-NH2",
  "type": "cell-based",
  "conditions": "1.5 h",
  "how_it_was_run": "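PathHunter enzyme-complementation read-out of β-arrestin-2 recruitment to PAR2 in HEK293 cells. Efficacy is expressed relative to reference 2f-LIGRLO-NH2. Data are mean ± SEM of at least three independent experiments run in duplicate.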",
  "data": [
    {"smiles": "NC(=O)Cc1ccccc1CNC(=O)Cc1ccccc1CNC(=O)c1ccno1", "values": [
      {"measurement": "Emax", "result": "< 5", "unit": "%"}
    ]}
  ]
}
